# Assay: MR imaging of uptake, retention and clearance in CCI mouse model of TBI
# Set-up: species or system mice
# Details: in vivo
# Description: 8-10 Week old C57/B6 mice were induced with 4% isoflurane gas via inhalation and maintained at 1.5-2%, then placed upon a warm heating pad set to 100° F. to maintain body temperature. Prior to surgery, hair on the top of the skull was trimmed and epilated via shears and Nair (Church and Dwight Co., Inc., Princeton, NJ). Lidocaine (0.05 mL at a 5 mg/mL) and bupivacaine (0.05 mL at 0.3 mg/mL) were injected subcutaneously under the scalp. After 5 min to allow anesthetic to absorb, a midline incision was made in the skin from lambda to bregma. Fascia and skin were retracted and a small hole drilled using a high speed surgical drill over the left frontoparietal cortex (3 mm anterior and 2 mm left from lambda), and a 3 mm circular cranial window created using rongeurs. A pneumatically-operated controlled cortical impactor (CCI) with a 3 mm convex tip was used to impact the brain normal to the dura surface at a depth of 1 mm at 6 m/s and remained in the brain for 150 ms. Incisions were closed using skin glue and mice given an intraperitoneal injection of buprenorphine (0.1 mg/kg). Mice were monitored under a heat lamp until awake. Within 15 min post-surgery ORP were injected through the tail vein at 100 mg/mL in PBS. […]
substance,measurement,value
poly(MEMcoO950coMNHS) [ORP],"signal enhancement in muscle, cortex and striatum",eliminated by 24 hrs

# — patent US12329773B2, “Oxygen reactive polymers for treatment of traumatic brain injury” (University of Washington, priority 2015, dated 2025)
